This assay deals with recurrent glioblastoma multiforme (GBM). In words: Phase I/II dose-escalation study: tumor response (RANO) in recurrent GBM patients. The settings on record: 25 patients across 8 dose cohorts.

In the case of `O[C@H]([C@H](O)[C@@H]1CO1)[C@H]1CO1` [dianhydrogalactitol], the “maximum response (duration)” value worked out at 84 wks.
